From patent US10399948B2, “Negative allosteric modulators of metabotropic glutamate receptor 3” (Vanderbilt University, priority 2015, dated 2019) come the findings set out here.

The chains behind the UniProt entries cited, without tags or fusion partners. Residues count along the entry.
UniProt P31421, 19-872: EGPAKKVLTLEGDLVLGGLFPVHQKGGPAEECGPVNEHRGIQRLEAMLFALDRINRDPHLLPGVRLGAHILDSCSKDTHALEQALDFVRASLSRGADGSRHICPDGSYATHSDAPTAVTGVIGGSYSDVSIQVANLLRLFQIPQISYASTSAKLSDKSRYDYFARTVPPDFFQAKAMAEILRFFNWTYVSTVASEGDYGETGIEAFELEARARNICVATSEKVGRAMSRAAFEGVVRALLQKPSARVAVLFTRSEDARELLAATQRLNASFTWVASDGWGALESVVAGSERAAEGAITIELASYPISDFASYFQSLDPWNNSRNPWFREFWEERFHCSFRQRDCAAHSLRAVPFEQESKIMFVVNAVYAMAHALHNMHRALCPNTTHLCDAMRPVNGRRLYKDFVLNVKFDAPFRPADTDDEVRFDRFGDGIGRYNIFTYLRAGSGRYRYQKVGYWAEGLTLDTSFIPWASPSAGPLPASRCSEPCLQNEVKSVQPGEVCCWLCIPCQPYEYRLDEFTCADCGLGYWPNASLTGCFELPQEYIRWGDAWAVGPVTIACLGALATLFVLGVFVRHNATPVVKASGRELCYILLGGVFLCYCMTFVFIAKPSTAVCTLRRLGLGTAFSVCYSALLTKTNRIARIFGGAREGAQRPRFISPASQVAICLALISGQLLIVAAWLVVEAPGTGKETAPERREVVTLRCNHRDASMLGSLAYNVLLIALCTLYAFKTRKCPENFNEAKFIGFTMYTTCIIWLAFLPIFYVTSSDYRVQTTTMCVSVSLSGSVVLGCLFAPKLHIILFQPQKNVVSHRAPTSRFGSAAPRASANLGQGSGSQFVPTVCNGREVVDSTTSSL

For the assay, the target named is rat mGlu2 (Rattus norvegicus (Rat), UniProt P31421). Put plainly: mGlu2 Ca2+ flux assay. It counts as cell-based. The settings on record: NAM, glutamate EC80; >30,000 = no measurable activity. On the procedure: Gα15 HEK293 cells stably expressing rat mGlu2 were plated in black-walled, clear-bottomed, poly-D-lysine coated 384-well plates in 20 μL of assay medium (DMEM containing 10% dialyzed FBS, 20 mM HEPES, and 1 mM sodium pyruvate) at a density of 12K cells/well. The cells were grown overnight at 37° C. in the presence of 5% CO2. The next day, medium was removed and the cells incubated with 20 μL of […] Fluo-4, AM prepared as a 2.3 mM stock in DMSO and mixed in a 1:1 ratio with 10% (w/v) pluronic acid F-127 and diluted in assay buffer (Hank's balanced salt solution, 20 mM HEPES, and 2.5 mM probenecid) for 45 minutes at 37° C. […]
Ca^2+ flux was measured using the Functional Drug Screening System (FDSS7000, Hamamatsu, Japan). After establishment of a fluorescence baseline for about 3 seconds, the compounds of the present invention were added to the cells, and the response in cells was measured. 2.3 minutes later an EC20 concentration of the mGlu2 receptor agonist glutamate was added to the cells, and the response of the cells was measured for 1.9 minutes; an EC80 concentration of agonist was added and readings taken for an additional 1.7 minutes. […] Calcium fluorescence measures were recorded as fold over basal fluorescence; raw data was then normalized to the maximal response to glutamate. […]
On the technique in general: Calcium flux is commonly read through the fluorescence of an indicator in the cells.

Where only a bound is given, the exact number is not on record here.

By IC50 is commonly meant the point on the concentration scale where inhibition reaches its midpoint. Take `O=c1cc(OCCOc2ccccc2)ccn1-c1cc(F)cc(F)c1` [Compound 21, 1-(3,5-difluorophenyl)-4-(2-phenoxyethoxy)pyridin-2(1H)-one]: the half-inhibitory concentration (IC50) is more than 30 µM.
